The text below walks through data of EP4636093A1, “TARGETING MAPK-ERK PATHWAY FOR ENHANCING NUCLEIC ACID DELIVERY” (priority 2024, dated 2025).

The subject of the data set is T cells. In kind it is cell-based, Human.

Deucravacitinib: the viability result (400 nM, CD4-LV and CD8-LV, 3 days after transduction, three donors) is listed as “without compromising viability”. For the same substance, the “effect on T cell viability” value (various doses, all vector-treated groups compared to untreated samples) was “no negative effect”.
